From ChEMBL document CHEMBL3774312, “5-Substituted 3-isopropyl-7-[4-(2-pyridyl)benzyl]amino-1(2)H-pyrazolo[4,3-d]pyrimidines with anti-proliferative activity as potent and selective inhibitors of cyclin-dependent kinases” (Eur J Med Chem, 2016) come the findings set out here.

The chains behind the UniProt entries cited, without tags or fusion partners.
UniProt Q00535, whole entry: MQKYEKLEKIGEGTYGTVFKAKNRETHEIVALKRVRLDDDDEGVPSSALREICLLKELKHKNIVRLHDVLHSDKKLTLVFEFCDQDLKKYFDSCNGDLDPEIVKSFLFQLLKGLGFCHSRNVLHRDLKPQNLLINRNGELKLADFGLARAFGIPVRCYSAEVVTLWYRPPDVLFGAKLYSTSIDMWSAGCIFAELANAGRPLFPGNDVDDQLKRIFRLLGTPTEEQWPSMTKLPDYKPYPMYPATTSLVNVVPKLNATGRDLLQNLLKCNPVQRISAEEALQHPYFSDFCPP

The structures appear in SMILES notation.

In the assay the target is Cyclin-dependent kinase 5 (Homo sapiens, UniProt Q00535).

Consider `CC(O)CNc1nc(NCc2ccc(-c3ccccn3)cc2)c2[nH]nc(C(C)C)c2n1` (configuration not stated), for which the concentration for half-maximal inhibition (IC50) is 5 nM.

With `CCC(CO)Nc1nc(NCc2ccc(-c3ccccn3)cc2)c2[nH]nc(C(C)C)c2n1` (configuration not stated), the midpoint of inhibition, the IC50, lay at 9 nM.
